Assay: in vivo

What does the source list for `CO/N=C(\C(=O)N[C@@H]1C(=O)N2C(C(=O)O)=C(CSc3nc(=O)c(=O)[nH]n3C)CS[C@H]12)c1csc(N)n1` [Product A]?
LD50 (iv): 250 to 500 mg/kg; LD50 (po): > 5000 mg/kg; LD50 (sc): > 4000 mg/kg

— patent publication US4327210A, “Thiazolylacelamide cephalosporins” (Hoffmann-La Roche Inc., priority 1978, dated 1982)
